Measurements: patent US10344060B2 (priority 2013, dated 2019)

Sequences of proteins named here, by UniProt entry; tags and fusion partners are left off.
UniProt Q9UQD0, whole entry: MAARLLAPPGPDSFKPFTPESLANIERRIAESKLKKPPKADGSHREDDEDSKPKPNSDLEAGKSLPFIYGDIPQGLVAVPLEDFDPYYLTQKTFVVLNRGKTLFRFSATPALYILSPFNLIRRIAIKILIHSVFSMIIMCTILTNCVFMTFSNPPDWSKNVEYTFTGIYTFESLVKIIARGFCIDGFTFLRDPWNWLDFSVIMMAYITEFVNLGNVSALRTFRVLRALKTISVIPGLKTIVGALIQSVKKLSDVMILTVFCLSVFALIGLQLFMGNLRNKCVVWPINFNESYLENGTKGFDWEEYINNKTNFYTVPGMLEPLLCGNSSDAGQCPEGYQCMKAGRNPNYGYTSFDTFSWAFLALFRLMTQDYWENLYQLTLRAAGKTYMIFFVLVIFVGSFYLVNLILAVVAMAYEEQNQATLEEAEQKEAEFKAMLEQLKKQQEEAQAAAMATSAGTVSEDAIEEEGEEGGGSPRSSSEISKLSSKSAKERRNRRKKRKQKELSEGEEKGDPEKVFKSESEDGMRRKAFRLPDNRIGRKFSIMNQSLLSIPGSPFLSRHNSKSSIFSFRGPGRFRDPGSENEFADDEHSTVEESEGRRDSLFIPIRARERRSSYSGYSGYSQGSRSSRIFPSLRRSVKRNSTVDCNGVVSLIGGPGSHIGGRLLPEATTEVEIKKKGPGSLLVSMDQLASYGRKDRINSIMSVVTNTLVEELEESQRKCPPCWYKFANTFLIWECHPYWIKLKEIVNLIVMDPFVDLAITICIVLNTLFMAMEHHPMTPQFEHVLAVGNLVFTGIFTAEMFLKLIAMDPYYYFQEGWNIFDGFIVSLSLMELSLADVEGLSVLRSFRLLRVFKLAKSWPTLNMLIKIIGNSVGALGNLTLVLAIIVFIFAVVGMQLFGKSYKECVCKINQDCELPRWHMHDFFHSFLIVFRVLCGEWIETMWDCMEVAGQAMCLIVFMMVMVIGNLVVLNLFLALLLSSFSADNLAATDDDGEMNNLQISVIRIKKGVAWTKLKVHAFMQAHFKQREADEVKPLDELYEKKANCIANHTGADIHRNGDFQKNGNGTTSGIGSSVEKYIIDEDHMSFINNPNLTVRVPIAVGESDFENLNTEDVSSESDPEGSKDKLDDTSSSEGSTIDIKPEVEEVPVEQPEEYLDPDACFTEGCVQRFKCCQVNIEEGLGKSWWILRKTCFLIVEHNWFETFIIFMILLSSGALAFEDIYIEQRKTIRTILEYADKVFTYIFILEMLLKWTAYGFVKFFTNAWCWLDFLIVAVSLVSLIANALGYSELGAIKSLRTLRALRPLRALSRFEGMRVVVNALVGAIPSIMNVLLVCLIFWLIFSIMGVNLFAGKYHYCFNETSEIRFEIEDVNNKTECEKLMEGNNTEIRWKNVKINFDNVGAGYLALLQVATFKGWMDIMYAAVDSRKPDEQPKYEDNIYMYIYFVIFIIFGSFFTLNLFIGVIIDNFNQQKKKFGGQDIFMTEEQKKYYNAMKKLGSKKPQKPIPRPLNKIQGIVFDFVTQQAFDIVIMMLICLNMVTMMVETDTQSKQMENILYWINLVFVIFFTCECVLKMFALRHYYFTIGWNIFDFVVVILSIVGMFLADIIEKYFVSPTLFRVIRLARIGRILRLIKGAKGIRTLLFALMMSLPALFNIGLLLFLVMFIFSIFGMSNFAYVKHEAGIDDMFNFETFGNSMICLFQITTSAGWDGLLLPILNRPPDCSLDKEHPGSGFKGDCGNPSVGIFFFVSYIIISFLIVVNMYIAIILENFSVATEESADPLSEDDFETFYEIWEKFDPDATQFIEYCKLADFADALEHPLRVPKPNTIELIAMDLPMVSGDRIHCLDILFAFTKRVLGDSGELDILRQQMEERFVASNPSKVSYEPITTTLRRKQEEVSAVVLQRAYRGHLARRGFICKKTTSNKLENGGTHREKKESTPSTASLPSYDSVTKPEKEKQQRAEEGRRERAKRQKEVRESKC
UniProt Q15858, whole entry: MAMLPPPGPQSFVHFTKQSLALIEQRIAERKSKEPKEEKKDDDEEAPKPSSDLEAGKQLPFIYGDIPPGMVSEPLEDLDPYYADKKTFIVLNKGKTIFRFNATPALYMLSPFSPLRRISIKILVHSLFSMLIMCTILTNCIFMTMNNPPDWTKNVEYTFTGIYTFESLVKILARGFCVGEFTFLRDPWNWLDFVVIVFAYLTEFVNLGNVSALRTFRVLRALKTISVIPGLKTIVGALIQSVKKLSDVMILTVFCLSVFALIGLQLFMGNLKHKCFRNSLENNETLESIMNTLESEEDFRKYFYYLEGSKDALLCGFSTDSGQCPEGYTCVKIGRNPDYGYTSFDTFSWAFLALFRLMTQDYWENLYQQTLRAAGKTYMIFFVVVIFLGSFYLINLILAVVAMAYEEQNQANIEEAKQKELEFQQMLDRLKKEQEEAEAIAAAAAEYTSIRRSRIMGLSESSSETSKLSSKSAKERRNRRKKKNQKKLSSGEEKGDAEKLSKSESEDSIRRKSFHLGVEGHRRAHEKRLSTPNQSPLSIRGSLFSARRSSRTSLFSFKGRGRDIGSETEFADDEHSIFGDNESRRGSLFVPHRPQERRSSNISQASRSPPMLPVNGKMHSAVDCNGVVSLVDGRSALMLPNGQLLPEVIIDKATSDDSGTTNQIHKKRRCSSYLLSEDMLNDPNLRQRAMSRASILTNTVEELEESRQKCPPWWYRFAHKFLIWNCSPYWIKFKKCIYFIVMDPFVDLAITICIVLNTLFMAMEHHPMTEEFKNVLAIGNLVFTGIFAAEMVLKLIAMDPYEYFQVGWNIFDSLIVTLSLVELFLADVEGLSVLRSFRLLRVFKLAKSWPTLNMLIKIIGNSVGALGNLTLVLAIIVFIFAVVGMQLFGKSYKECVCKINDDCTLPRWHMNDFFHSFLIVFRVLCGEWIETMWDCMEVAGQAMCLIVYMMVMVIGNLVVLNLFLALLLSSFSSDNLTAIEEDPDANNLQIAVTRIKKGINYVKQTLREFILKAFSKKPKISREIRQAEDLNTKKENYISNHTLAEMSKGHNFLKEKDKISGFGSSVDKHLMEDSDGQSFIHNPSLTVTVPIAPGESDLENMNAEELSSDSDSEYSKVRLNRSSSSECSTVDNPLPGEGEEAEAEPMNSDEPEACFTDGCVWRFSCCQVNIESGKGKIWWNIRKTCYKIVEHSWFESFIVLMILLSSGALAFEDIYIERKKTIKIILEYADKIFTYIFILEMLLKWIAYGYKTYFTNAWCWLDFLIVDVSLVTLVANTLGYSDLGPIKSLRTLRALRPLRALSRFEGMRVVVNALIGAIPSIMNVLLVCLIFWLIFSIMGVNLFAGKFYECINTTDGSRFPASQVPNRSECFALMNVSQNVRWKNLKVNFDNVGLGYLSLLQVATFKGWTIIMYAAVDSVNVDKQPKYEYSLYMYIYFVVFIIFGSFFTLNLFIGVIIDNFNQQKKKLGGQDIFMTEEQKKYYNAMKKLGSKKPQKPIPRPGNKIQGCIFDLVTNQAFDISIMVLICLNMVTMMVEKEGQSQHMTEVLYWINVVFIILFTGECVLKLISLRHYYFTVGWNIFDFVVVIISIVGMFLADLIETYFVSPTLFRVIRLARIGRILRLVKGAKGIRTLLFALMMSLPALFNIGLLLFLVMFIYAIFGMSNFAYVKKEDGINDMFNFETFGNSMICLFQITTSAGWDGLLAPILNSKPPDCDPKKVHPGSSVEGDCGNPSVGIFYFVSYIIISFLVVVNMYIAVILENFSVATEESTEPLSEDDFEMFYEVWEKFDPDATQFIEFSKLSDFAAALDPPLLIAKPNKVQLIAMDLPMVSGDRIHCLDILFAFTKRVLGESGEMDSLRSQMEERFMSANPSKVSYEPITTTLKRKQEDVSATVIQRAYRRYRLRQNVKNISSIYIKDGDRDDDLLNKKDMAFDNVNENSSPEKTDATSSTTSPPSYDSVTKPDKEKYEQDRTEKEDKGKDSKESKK

Assays:
hNav1.6 = hNav1.6 (Homo sapiens, UniProt Q9UQD0); test: cell-based; details: Table 15; read-out: PX hNav1.6 Tonic IC50
hNav1.7 = hNav1.7 (Homo sapiens, UniProt Q15858); test: cell-based; details: read-out: PX hNav1.7 Tonic IC50

`C#CC[C@H](N)C(=O)N[C@@H](Cc1ccc(O)cc1)C(=O)N[C@H]1CSSC[C@@H]2NC(=O)[C@@H]3CSSC[C@@H](C(=O)N[C@@H](CCCNC(=N)N)C(=O)N[C@@H](CCCCN)C(=O)N[C@@H](CCC(=O)O)C(=O)N[C@H](C(N)=O)[C@@H](C)CC)NC(=O)[C@H](Cc4c[nH]c5ccccc45)NC(=O)[C@H](CC(C)C)NC(=O)[C@H](CCCCN)NC(=O)[C@H](CSSC[C@H](NC(=O)[C@H]([C@@H](C)O)NC(=O)[C@H](Cc4c[nH]c5ccccc45)NC(=O)[C@H](CCCC)NC(=O)[C@H](Cc4c[nH]c5ccccc45)NC(=O)[C@H](CCCCN)NC(=O)[C@H](CCC(N)=O)NC1=O)C(=O)N[C@@H](CC(=O)O)C(=O)N[C@@H](CO)C(=O)N[C@@H](CCCCN)C(=O)N[C@@H](CCCNC(=N)N)C(=O)N[C@@H](C)C(=O)N3)NC(=O)[C@H](CCCNC(=N)N)NC(=O)[C@H](CCC(=O)O)NC(=O)CNC(=O)[C@H](CCC(=O)O)NC2=O` [compound 720] showed an IC50 (hNav1.6) of over 10 µM, an IC50 (hNav1.7; Table 12, PatchXpress, tonic block) of over 1 µM and an IC50 (hNav1.7; Table 15) of over 1 µM.

Where two headings read alike, the source gives them in different places.
